According to PubChem BioAssay AID1347071 (National Center for Advancing Translational Sciences (NCATS), 2019):
Only a part is listed here, and it is no random draw. Some salts or complexes appear as unconnected parts, following the source record. Activity calls are given as the source filed them. Calls come from the whole dose curve; as a rule, active = well fitted activation curve with a large enough effect; inconclusive = small, poorly fitted or top-dose-only effect; inactive = no such curve, though single readings can be large or run the other way.

test: qHTS for compounds that reverse cellular toxicity of Amyloid beta (A-beta) peptide in yeast: Primary Screen; conditions: yeast expressing A-beta42, growth rescue, OD600, 48 h, 0% DMSO, 100% iron-clioquinol control; at 46.1 µM (top of the series); note: nearly all actives have a fitted effect of over 55% in size
Source text: The A-beta peptide is produced by the processing of the amyloid precursor protein (APP) by two proteases, beta and gamma secretases. […] A-beta42 is regarded as the most amyloidogenic form due to its hydrophobicity; however, precisely how A-beta42 induces neurotoxicity is unclear. To understand further this biology and its potential therapeutic implications for human neurodegenerative disease, a quantitative high-throughput screen for compounds that reverse the cellular toxicity of the A-beta peptide was developed. A yeast based screen was used because it recapitulates the salient feature of protein mis-folding disorder accurately. This cell-based phenotypic screen provides a significant, unbiased advantage by letting the compounds and models inform us which proteins or pathways are most relevant. The ideal chemical candidates would therefore have activity in both our primary yeast and secondary neuronal toxicity assays, as well as in mouse models. They will be valuable tools for dissecting diverse protein homeostasis pathologies and could potentially become the focus for future pre-clinical development. For this luminescence assay, inhibition of A-beta rescues the toxic effect in the yeast cell, resulting in increase of signals and the desired phenotype of "Activator". This screen is run against the Molecular Libraries Small Molecule Repository (MLSMR) and the NCGC Sytravon Library Collection.
NIH Chemical Genomics Center [NCGC]
NIH Molecular Libraries Probe Centers Network [MLPCN]
Assay Submitter (PI): Susan Lindquist, Whitehead Institute, Massachusetts Institute of Technology
[1] Vassar R,et al (1999). Beta-secretase cleavage of Alzheimer's amyloid precursor protein by the transmembrane aspartic protease BACE. Science. 286: 735-741.
[2] Yan R, et al (1999). Membrane-anchored aspartyl protease with Alzheimer's disease beta-secretase activity. Nature. 402: 533-536.
Two and a half microliter / well of yeast growth medium were dispensed in a 1536 assay plate. Compounds were pinned using the Kalypsys robotic system followed by addition of 2.5 uL / well yeast solution. The assay plates were incubated at 30 C. After 48 hr, the absorbance signal at 600 nm was obtained using the PerkinElmer ViewLux plate reader to assess yeast growth. The data was normalized to the positive control of an equimolar mixture of ferric chloride (FeCl3) and clioquinol and to the negative control DMSO.

Compound	growth rescue
CCCCOc1ccc(C(=O)NCC2(N3CCOCC3)CCCCC2)cc1	inactive: 5.08%
CCCCn1nnnc1C(c1cc2ccccc2o1)N1CCC(n2c(=O)[nH]c3ccccc32)CC1 (stereo unspecified)	inactive: 12.6%
O=P1(N(CCCl)CCCl)SCCCS1	inactive: 0.805%
O=C(NCC1(N2CCCCC2)CCCCC1)c1ccc(F)cc1	inactive: 12.1%
COc1ccccc1C(=O)NCC1(N2CCOCC2)CCCCC1	inactive: -4.46%
CCOc1ccc(C)cc1CN(CCCl)CCCl	inactive: -2.11%
O=C1CCN(Cc2ccccc2)CC1	inactive: -13.5%
O=C(NCC1(N2CCOCC2)CCCCC1)c1ccc(Cl)cc1	inactive: -13%
CC(C)(C)n1nnnc1C(c1ccccc1)N1CCC(n2c(=O)[nH]c3ccccc32)CC1 (stereo unspecified)	inactive: -0.678%
O=c1[nH]c2ccccc2n1C1CCN(C(c2cccc3ccccc23)c2nnnn2C2CCCC2)CC1 (stereo unspecified)	inactive: 8.05%
CCOC(=O)N1CCC(Nc2cccc(C)c2)CC1	inactive: 0%
COc1cc(C(=O)NCC2(N(C)C)CCCCC2)ccc1OC(F)F	inactive: -43.8%
O=c1[nH]c2ccccc2n1C1CCN(C(c2ccccc2)c2nnnn2C2CCCCC2)CC1 (stereo unspecified)	inactive: 9.09%
Cc1cccc(NC2(C#N)CCN(Cc3ccccc3)CC2)c1	inactive: -6.07%
CSc1ccccc1C(=O)NCC1(N2CCCCC2)CCCCC1	inactive: 3.1%
O=C(NCC1(N2CCCCC2)CCCCC1)c1cccs1	inactive: -0.346%
CCCCn1nnnc1C(CC)N1CCC(n2c(=O)[nH]c3ccccc32)CC1 (stereo unspecified)	inactive: 8.45%
CCCCn1nnnc1C(c1cccs1)N1CCC(n2c(=O)[nH]c3ccccc32)CC1 (stereo unspecified)	inactive: -13%
O=C(NCC1(N2CCCCC2)CCCCC1)c1ccc(=O)[nH]c1	inactive: 0.71%
CC(C)(C)OC(=O)N1CCC(N(C(=O)c2ccccc2)c2ccc(F)cc2)CC1	inactive: 0.367%
COc1ccc(C(=O)NCC2(N3CCCCC3)CCCCC2)c(OC)c1OC	inactive: -0.0597%
CCC(c1nnnn1C1CCCC1)N1CCC(n2c(=O)[nH]c3ccccc32)CC1 (stereo unspecified)	inactive: -0.536%
COc1ccc(C(=O)NCC2(N3CCCCC3)CCCCC2)cc1	inactive: -19.9%
CCCCn1nnnc1C(c1ccc(OC)cc1)N1CCC(n2c(=O)[nH]c3ccccc32)CC1 (stereo unspecified)	inactive: -21.8%

Compound	growth rescue
CCOC(=O)N1CCC(Nc2ccc(OC)cc2)CC1	inactive: -15.8%
COc1ccc(Cl)cc1C(=O)NCC1(N2CCOCC2)CCCCC1	inactive: 2.24%
O=C1C(O)=C([N+](=O)[O-])C(=O)C(O)=C1[N+](=O)[O-]	inactive: 2.09%
O=C(NCC1(N2CCCCC2)CCCCC1)c1ccc(Cl)s1	inactive: 12.5%
N#CC1(Nc2ccccc2)CCN(Cc2ccccc2)CC1	inactive: -1.54%
O=c1[nH]c2ccccc2n1C1CCN(C(c2cc3ccccc3o2)c2nnnn2C2CCCCC2)CC1 (stereo unspecified)	inactive: 17.4%
O=C(OC1CN2CCC1CC2)C1c2ccccc2Oc2ccccc21 (stereo unspecified)	inactive: 24.3%
O=C(NCC1(N2CCOCC2)CCCCC1)c1cc2ccccc2o1	inactive: 3.42%
Cc1cc(C)cc(N(C(=O)c2ccccc2)C2CCN(C(=O)OC(C)(C)C)CC2)c1	inactive: 13.5%
O=C(NCC1(N2CCCCC2)CCCCC1)c1ccc(Cl)nc1	inactive: 1.13%
O=c1[nH]c2ccccc2n1C1CCN(C(c2ccccc2OC(F)(F)F)c2nnnn2C2CCCCC2)CC1 (stereo unspecified)	inactive: 9.33%
CCCCn1nnnc1C(c1ccnc2ccccc12)N1CCC(n2c(=O)[nH]c3ccccc32)CC1 (stereo unspecified)	inactive: -11.3%
O=C(NCC1(N2CCOCC2)CCCCC1)c1cc(F)c(F)cc1Cl	inactive: -7.29%
CCC(c1nnnn1C(C)(C)C)N1CCC(n2c(=O)[nH]c3ccccc32)CC1 (stereo unspecified)	inactive: -16.8%
COc1cc(OC)c(C(=O)NCC2(N(C)C)CCCCC2)cc1OC	inactive: 11.2%
CN(C)c1cccc(C(=O)NCC2(N3CCCCC3)CCCCC2)c1	inactive: -0.364%
O=[N+]([O-])c1cc([N+](=O)[O-])c(OC2CCCCC2O)c([N+](=O)[O-])c1 (stereo unspecified)	inactive: 5.53%
COc1ccc(CN(CCCl)CCCl)cc1Cl	inactive: 14.5%
CCCCn1nnnc1C(c1ccccc1OC(F)(F)F)N1CCC(n2c(=O)[nH]c3ccccc32)CC1 (stereo unspecified)	inactive: -10%
CC(C)c1ccc(NC2CCN(C(=O)OC(C)(C)C)CC2)cc1	inactive: 19%
O=C(NCC1(N2CCOCC2)CCCCC1)c1ccccc1Br	inactive: -5.87%
CCCOc1ccc(C(=O)NCC2(N(C)C)CCCCC2)cc1OC	inactive: -13.4%
CCCCOc1ccccc1C(=O)NCC1(N2CCOCC2)CCCCC1	inactive: -3.81%
Cc1ccc(C(=O)NCC2(N(C)C)CCCCC2)o1	inactive: -3.03%

Compound	growth rescue
COc1ccc(C(c2nnnn2C2CCCC2)N2CCC(n3c(=O)[nH]c4ccccc43)CC2)cc1 (stereo unspecified)	inactive: 7.28%
O=[N+]([O-])c1cc([N+](=O)[O-])c(Nc2ccc(Cl)cc2)c([N+](=O)[O-])c1	inactive: -77.6%
CN1CCC(Nc2cccc(F)c2)CC1	inactive: 23.6%
COc1ccc2c(c1O)-c1c(O)c(OC)cc3c1[C@H](C2)[N+](C)(C)CC3.O=[N+]([O-])c1cc([N+](=O)[O-])c([O-])c([N+](=O)[O-])c1[O-]	inactive: -7.46%
O=C(NCC1(N2CCCCC2)CCCCC1)c1cncc(Br)c1	inactive: -3.35%
O=C(OC1CN2CCC1CC2)c1ccc([N+](=O)[O-])cc1 (stereo unspecified)	inactive: 3.8%
O=C(NCC1(N2CCCCC2)CCCCC1)c1cccc([N+](=O)[O-])c1	inactive: -0.0136%
CCOc1ccc(C(=O)NCC2(N3CCOCC3)CCCCC2)cc1	inactive: -8.93%
CSc1ccc(C(=O)NCC2(N3CCOCC3)CCCCC2)cc1	inactive: -8.56%
O=c1[nH]c2ccccc2n1C1CCN(C(c2ccccc2OC(F)(F)F)c2nnnn2C2CCCC2)CC1 (stereo unspecified)	inactive: 2.85%
N#CC1(Nc2ccccc2)CCN(CCc2ccccc2)CC1	inactive: 6.83%
CCN1CCC(Nc2ccc(Cl)cc2)CC1	inactive: -2.26%
O=C(NCC1(N2CCCCC2)CCCCC1)c1ccc(OC(F)F)cc1	inactive: 9.08%
CC(C)(C)n1nnnc1C(c1ccccc1OC(F)(F)F)N1CCC(n2c(=O)[nH]c3ccccc32)CC1 (stereo unspecified)	inactive: -1.04%
CC(C)c1ccc(C(=O)NCC2(N3CCOCC3)CCCCC2)cc1	inactive: 2.83%
COc1ccc(NC2CCN(C(=O)OC(C)(C)C)CC2)cc1	inactive: 8%
CN1CCN(CCOC(=O)C(O)(c2ccccc2)c2ccccc2)CC1	inactive: -7.78%
CCCCn1nnnc1C(c1cccc2ccccc12)N1CCC(n2c(=O)[nH]c3ccccc32)CC1 (stereo unspecified)	inactive: 5.74%
O=C(NCC1(N2CCOCC2)CCCCC1)c1cc(=O)[nH]c2ccccc12	inactive: 3.8%
COc1cc(C(=O)NCC2(N3CCCCC3)CCCCC2)ccc1OC(F)F	inactive: -6.14%
O=C(NCC1(N2CCCCC2)CCCCC1)c1cccc(C(F)(F)F)c1	inactive: 11.7%
CCCOc1cccc(C(=O)NCC2(N3CCOCC3)CCCCC2)c1	inactive: -14.7%
O=[N+]([O-])c1cc([N+](=O)[O-])c(NCC2CCS(=O)(=O)C2)c([N+](=O)[O-])c1 (stereo unspecified)	inactive: -5.69%
